Consider one compound from ChEMBL document CHEMBL3886284, “Chemical compounds” (2015).

Chains of the proteins cited; added tags and fusions are not shown.
UniProt P42337, whole entry: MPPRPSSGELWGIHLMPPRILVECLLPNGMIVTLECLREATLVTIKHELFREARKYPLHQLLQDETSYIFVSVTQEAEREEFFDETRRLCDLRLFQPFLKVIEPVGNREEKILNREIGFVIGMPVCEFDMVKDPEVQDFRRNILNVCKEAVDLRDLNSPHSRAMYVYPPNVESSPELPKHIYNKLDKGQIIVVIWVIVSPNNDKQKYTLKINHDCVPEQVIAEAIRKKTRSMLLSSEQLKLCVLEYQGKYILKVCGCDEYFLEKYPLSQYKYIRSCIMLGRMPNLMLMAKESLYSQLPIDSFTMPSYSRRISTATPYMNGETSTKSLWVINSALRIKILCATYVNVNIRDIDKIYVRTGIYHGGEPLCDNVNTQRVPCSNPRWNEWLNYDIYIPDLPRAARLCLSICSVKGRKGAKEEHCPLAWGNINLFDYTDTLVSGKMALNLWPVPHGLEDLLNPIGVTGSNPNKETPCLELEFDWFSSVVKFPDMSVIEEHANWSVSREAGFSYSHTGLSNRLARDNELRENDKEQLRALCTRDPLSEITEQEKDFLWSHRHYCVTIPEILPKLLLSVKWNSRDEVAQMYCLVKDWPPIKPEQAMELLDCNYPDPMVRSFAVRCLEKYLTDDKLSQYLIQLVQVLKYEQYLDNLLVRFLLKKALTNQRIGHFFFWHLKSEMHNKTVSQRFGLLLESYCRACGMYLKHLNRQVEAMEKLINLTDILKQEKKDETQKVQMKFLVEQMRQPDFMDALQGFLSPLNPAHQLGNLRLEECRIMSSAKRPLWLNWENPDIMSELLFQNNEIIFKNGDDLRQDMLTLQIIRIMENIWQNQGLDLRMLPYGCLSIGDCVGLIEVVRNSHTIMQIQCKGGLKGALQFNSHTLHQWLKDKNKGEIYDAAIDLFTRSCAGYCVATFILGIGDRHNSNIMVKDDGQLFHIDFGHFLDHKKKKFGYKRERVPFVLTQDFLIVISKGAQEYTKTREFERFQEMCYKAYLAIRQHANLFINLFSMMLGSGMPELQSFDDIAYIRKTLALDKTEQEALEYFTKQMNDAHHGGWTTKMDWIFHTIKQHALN

The assay deals with Phosphatidylinositol 4,5-bisphosphate 3-kinase catalytic subunit alpha isoform (Mus musculus, UniProt P42337). The experiment in a line: Cell Based Assay: This assay was used to measure PI3K-alpha inhibition in cells. BT474 cells (human breast ductal carcinoma, ATCC HTB-20) were seeded into black 384 well plates (Costar, #3712) at a density of 5600 cells/well in DMEM containing 10% FBS and 1% glutamine and allowed to adhere overnight.The following morning compounds in 100% DMSO were added to assay plates by acoustic dispensing. After a 2 hour incubation at 37 C. and 5% CO2, the medium was aspirated and the cells were lysed with a buffer containing 25 mM Tris, 3 mM EDTA, 3 mM EGTA, 50 mM sodium fluoride, 2 mM Sodium orthovanadate, 0.27M sucrose, 10 mM beta-glycerophosphate, 5 mM sodium pyrophosphate, 0.5% Triton X-100 and complete protease inhibitor cocktail tablets (Roche #04 693 116 001, used 1 tab per 50 ml lysis buffer).After 20 minutes, the cell lysates were transferred into ELISA plates (Greiner #781077) which had been pre-coated with an anti total-AKT antibody in PBS buffer. More on the design: species or system BT-474.

SMILES strings stand for the structures. pIC50: −log10 of the molar value.

Consider `C[C@@H](O)CC(=O)N1CCC(c2nc(-c3cnc(N)c(-c4nnc(C(C)(C)C)o4)n3)n(C)n2)CC1` (stereo in doubt), for which the pIC50 is 6.51.
